Reference: ChEMBL document CHEMBL1132350, “Quantitative structure-activity relationship modeling of dopamine D(1) antagonists using comparative molecular field analysis, genetic algorithms-partial least-squares, and K nearest neighbor methods” (J Med Chem, 1999)

Chains of the proteins cited; added tags and fusions are not shown.
UniProt P18901, whole entry: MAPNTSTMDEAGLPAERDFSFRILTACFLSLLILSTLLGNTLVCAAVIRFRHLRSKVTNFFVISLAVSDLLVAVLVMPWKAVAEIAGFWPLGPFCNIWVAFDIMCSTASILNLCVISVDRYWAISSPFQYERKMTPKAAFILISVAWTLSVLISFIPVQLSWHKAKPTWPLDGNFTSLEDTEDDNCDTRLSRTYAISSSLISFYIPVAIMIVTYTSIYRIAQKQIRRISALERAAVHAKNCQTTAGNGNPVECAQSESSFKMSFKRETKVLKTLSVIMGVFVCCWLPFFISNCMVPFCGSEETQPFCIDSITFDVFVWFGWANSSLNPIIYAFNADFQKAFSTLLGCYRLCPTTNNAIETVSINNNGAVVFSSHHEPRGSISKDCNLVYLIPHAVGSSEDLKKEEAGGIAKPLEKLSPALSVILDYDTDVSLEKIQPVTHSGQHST

Molecular target: D(1A) dopamine receptor (Rattus norvegicus) (UniProt P18901)
Details: Striatum

CN1Cc2cc(Cl)c(O)cc2C(c2ccccc2)C1 (configuration not stated)
-Log K0.5: 7.06

Oc1cc2c(cc1Cl)CNCC2c1ccccc1 (configuration not stated)
-Log K0.5: 6.55
